Measured values: US4510132A, “Compounds for use in antibacterial therapy” (priority 1982, dated 1985)

Key:
[1] = system: Salmonella typhimurium LT2 strain SL 696; experiment: MIC of antibiotics in the presence of polymyxin nonapeptide, microtiter plate, S. typhimurium; type: cell-based; conditions: for minimum inhibitory concentration (MIC) of the antibiotic: S. typhimurium SL 696, 18 h
Experimental: (§1) Methods. Smooth Salmonella typhimurium LT2 strain SL 696 (Wilkinson et al 1972 J. Gen. Microbiol. 70,527) was used as indicator organism. It was grown in Luria broth (Miller 1972. Experience in molecular genetics, Cold Spring Harbor Laboratory, New York) at 37° C. in a rotary shaker (220 rpm) into early logarithmic growth phase (Klett 40 units, Klett-Summerson colorimeter, red filter) washed with 0.9% NaCl and resuspended in 0.9% NaCl (final optical density 120 Klett units corresponding to approx. 10^9 cells/ml).
(§2) The following antibiotics were used: novobiocin (Sigma Chemical Co., St. Louis, Mo., United States), fusidic acid (sodium salt; Lovens Kemiske Fabrik, Copenhagen, Denmark), erythromycin ethylsuccinate (Orion Pharmaceuticals, Helsinki, Finland), clindamycin hydrochloride (The Upjohn Company, Kalamazoo, Mich., United States), nafcillin (sodium salt; Wyeth, Great Valley, Philadelphia, Pa., United States), cloxacillin (sodim salt; Astra, Sodertalje, Sweden), and benzylpenicillin (sodium Salt; Novo Industri, Copenhagen, Denmark). Erythromycin ethylsuccinate stock solution was prepared by dissolving 5.5 mg of erythromycin […] with 2 ml of 96% ethanol whereafter deionized water was added to a final volume of 5.5 ml. Other antibiotics were readily dissolved in deionized water.
Experimental procedure: Davis minimal growth medium (Sanderson et al, 1972, Bact. Rev. 36,608) containing glucose (1 g/l), casaminoacids (1 g/l. Difco), tryptophan (20 mg/l), and increasing amounts of a particular antibiotic was inoculated with 10^4 cells per ml of a fresh suspension of indicator bacteria. Aliquots (200 μl) of this inoculated medium were pipetted in wells of a microtiter plate (Titertek, CAT NO. 76-213-05, Flow Laboratories, United States). Each well already contained increasing amounts of the particular polycationic agent in 30 μl of 0.9% NaCl. The plates were sealed with adhesive tape and incubated at 37° C. for 18 h.
Methods. The known compound, polymyxin E nonapeptide (colistin E nonapeptide, Japanese patent specification Nos. 4178/1971 and 51355/1972) having the following formula: [drawing 5] where leu is leucine, thr is threonine, and dab is diaminobutyric acid, was prepared from polymyxin E (colistin) using an enzymatic ficin treatment as described by Chihara et al (Agr. Biol. Chem. 37,2455, 1973). The bacterial strains and the method used in the sensitivity determination has been described in Example 3 and 4.

[2] = system: E. coli strain IH 3080 (018:K1); experiment: MIC of antibiotics in the presence of polymyxin nonapeptide, microtiter plate, E. coli; type: cell-based; conditions: E. coli 018:K1 strain IH 3080; from Table 2
Experimental: as §1
as §2, with “water. […]” for “water.”

[3] = system: E. coli strain IH 3080 (018:K1); conditions: for Number of dead mice: control 14 mice, PMBN-group 16 mice

CCC[C@@H]1C[C@@H](C(=O)N[C@@H]([C@H]2O[C@H](SC)[C@H](O)[C@@H](O)[C@H]2O)[C@H](C)Cl)N(C)C1.Cl [Clindamycin, clindamycin hydrochloride]
minimum inhibitory concentration (MIC) of the antibiotic ([1]; PMBN 0 μg/ml): 100
minimum inhibitory concentration (MIC) of the antibiotic ([1]; PMBN 0.3 μg/ml): 30
minimum inhibitory concentration (MIC) of the antibiotic ([1]; PMBN 1 μg/ml): 10
minimum inhibitory concentration (MIC) of the antibiotic ([1]; PMBN 3 μg/ml): 10
minimum inhibitory concentration (MIC) of the antibiotic ([1]; PMBN 10 μg/ml): 10
minimum inhibitory concentration (MIC) of the antibiotic ([1]; PMBN 30 μg/ml): 10
factor by which PMBN sensitized the strain to the antibiotic ([1]; S. typhimurium strain SL 696, from Table 1): 10 times
factor by which PMBN sensitized the strain to the antibiotic [2]: 10 times
Number of dead mice ([3]; day 1 after infection, clindamycin 100 mg/kg, PMBN 5 mg/kg i.p.): 1
Number of dead mice ([3]; day 2 after infection): 11
Number of dead mice ([3]; day 3 after infection): 12
Number of dead mice ([3]; day 4 after infection): 12
Number of dead mice ([3]; day 5 after infection): 12
therapeutic action against the E. coli infection ([3]; mice, clindamycin 100 mg/kg, PMBN 5 mg/kg): without any therapeutic action

Read-outs that look alike come from different tables or passages of the source.
